Biological target: Histone deacetylase 3 (Homo sapiens, UniProt O15379)
Test: Inhibition of HDAC3 (unknown origin)

Protein sequences, listed by entry. Tags and fused reporters are not part of them. Lines headed by an entry give the natural chain unless they say otherwise; changes in a name come on top.
UniProt O15379: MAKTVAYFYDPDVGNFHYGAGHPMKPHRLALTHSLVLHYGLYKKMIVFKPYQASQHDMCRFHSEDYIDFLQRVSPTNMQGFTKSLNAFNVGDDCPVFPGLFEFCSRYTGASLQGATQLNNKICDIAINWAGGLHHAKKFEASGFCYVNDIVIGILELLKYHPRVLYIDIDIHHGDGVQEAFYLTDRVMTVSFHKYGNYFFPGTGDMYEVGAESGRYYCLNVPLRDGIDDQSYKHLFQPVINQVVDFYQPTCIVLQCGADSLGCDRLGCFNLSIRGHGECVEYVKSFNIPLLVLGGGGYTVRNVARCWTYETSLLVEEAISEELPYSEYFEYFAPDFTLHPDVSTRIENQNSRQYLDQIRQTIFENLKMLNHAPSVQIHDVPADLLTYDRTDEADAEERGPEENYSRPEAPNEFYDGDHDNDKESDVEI

For `CCCC(CCC)C(=O)O` [VALPROIC ACID], the IC50 was 700 µM.

Reference: ChEMBL document CHEMBL5096206, “From natural products to HDAC inhibitors: An overview of drug discovery and design strategy” (Bioorg Med Chem, 2021)
